Experimental data from ChEMBL document CHEMBL2021856 (ACS Med Chem Lett, 2011).
The source made the active and inactive calls.

Sequences of proteins named here, by UniProt entry; tags and fusion partners are left off. A change or cut given only in a name is not applied to a line headed by its entry.
UniProt P28223, whole entry: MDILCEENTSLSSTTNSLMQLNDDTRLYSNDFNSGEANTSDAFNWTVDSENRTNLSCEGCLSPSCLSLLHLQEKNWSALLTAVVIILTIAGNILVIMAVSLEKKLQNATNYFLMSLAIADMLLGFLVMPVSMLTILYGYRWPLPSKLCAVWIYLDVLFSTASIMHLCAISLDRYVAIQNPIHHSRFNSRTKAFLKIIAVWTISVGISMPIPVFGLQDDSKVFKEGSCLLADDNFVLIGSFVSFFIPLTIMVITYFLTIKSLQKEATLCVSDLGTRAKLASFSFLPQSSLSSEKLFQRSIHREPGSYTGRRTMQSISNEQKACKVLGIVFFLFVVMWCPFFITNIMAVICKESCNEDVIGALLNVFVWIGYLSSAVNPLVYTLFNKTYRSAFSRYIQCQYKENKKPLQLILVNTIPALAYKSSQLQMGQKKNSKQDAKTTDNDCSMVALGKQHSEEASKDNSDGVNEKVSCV
UniProt P41595, whole entry: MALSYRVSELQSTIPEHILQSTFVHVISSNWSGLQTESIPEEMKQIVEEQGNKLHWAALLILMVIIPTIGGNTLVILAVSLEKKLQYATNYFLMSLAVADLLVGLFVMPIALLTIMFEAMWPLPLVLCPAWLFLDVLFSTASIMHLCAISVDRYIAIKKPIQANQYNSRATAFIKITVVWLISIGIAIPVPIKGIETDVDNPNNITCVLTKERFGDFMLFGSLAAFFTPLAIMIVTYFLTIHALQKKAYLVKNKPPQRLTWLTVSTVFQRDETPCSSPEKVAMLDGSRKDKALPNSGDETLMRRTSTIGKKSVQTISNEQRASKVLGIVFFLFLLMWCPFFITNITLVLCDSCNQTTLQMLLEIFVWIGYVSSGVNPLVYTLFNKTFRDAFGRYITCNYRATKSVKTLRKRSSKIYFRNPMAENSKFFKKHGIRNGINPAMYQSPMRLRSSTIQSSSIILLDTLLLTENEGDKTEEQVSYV
UniProt P28335: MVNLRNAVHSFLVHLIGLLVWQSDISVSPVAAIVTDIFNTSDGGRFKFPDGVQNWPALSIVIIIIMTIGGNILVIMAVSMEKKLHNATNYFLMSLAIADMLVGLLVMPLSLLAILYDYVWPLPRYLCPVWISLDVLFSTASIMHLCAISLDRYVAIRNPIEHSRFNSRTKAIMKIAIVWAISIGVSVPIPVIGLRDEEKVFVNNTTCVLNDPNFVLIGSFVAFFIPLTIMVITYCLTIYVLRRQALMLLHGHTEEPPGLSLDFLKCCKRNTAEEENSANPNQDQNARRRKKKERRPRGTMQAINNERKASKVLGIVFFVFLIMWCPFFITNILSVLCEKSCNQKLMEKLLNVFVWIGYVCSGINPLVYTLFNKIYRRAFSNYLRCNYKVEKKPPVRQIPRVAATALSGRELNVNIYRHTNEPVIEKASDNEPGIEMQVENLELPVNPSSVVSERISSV

How the values were obtained:
Format in all cases: functional, cell-based
[1] = target: 5-hydroxytryptamine receptor 2A (Homo sapiens, UniProt P28223); test: Agonist activity at human 5HT2A receptor expressed in HEK293 cells assessed as calcium flux at 10 uM measured every sec for 3 mins by FLIPR assay
[2] = target: 5-hydroxytryptamine receptor 2B (Homo sapiens, UniProt P41595); test: Agonist activity at human 5HT2B receptor expressed in HEK293 cells assessed as calcium flux at 10 uM measured every sec for 3 mins by FLIPR assay
[3] = target: 5-hydroxytryptamine receptor 2C (Homo sapiens, UniProt P28335); test: Agonist activity at human 5HT2C receptor expressed in HEK293 cells assessed as calcium flux at 10 uM measured every sec for 3 mins by FLIPR assay

Measured: Activity

CCCCOc1ccc(C)cc1[C@H]1C[C@@H]1CN.Cl (racemic)
inactive: all assays above
